The values below come from ChEMBL document CHEMBL1150002, “Synthesis and biological activities of new heterocyclic aromatic retinoids” (Bioorg Med Chem Lett, 1997).

This test concerns F9. The test can be described thus: Compound was tested for its ability to induce differentiation of F9 cells as estimated by plasminogen activator secretion (PA). It counts as functional, cell-based. The conditions noted are these: Mus musculus.

One may read the AC50 as the concentration at which the activity in the assay is half-maximal. As to `COc1ccc(C2=Cc3ccc(C(=O)O)cc3OC2)cc1C12C[C@H]3C[C@@H](C1)C[C@@H](C2)C3`, the AC50 is 34 nM.
